Sequences of proteins named here, by UniProt entry; tags and fusion partners are left off. A change or cut given only in a name is not applied to a line headed by its entry.
UniProt Q15436: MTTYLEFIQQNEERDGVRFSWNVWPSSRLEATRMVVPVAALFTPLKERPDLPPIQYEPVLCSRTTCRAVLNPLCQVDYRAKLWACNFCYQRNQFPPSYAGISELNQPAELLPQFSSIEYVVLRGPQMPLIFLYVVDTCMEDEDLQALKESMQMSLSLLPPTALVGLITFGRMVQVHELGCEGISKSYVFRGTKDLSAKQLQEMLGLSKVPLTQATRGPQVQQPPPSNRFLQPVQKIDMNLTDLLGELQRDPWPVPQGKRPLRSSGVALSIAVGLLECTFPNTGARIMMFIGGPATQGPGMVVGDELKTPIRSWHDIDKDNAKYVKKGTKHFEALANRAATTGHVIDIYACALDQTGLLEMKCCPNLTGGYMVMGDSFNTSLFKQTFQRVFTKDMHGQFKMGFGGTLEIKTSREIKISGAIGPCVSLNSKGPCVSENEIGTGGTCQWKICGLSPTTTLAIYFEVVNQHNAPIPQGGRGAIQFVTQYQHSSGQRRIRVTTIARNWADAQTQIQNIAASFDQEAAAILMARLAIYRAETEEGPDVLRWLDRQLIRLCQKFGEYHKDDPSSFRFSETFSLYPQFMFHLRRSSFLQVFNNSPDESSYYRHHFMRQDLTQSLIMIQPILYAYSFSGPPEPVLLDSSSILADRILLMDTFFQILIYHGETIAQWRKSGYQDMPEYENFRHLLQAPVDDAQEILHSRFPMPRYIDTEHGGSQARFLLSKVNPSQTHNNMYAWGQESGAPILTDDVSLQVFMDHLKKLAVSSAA

In paper PMC7307210:

Key:
[1] = target: SAR1B (human) (UniProt Q9Y6B6); experiment: liposome flotation assay; SAR1 on liposomes; SEC23A and SEC23B added both in competition, without or with SEC31A-af; SYPRO-Ruby staining of SAR1 and immunoblot of SEC23; SEC23A signal normalized to SAR1
[2] = target: SAR1B>A-helix (human) (UniProt Q9Y6B6); experiment: as above

fold binding relative to SAR1A, with SEC31A-af added [1]: 5 fold | fold recruitment relative to SAR1A [1]: 5 fold | fold reduction of binding (reference not clearly named) [2]: 2 fold
Substance: SEC23A (from UniProt Q15436 1-765; O94855 1-1032) (complex)
